# According to patent US4758555A, “Method for treating convulsions and epilepsy with organic copper compounds” (priority 1986, dated 1988):
# Details: in vivo
structure (smiles),measurement,value
O=C(O)c1ccccc1[O-].O=C(O)c1ccccc1[O-].[Cu+2] [Cu(II)(salicylate)2],LD50 relative to ED50 for prevention of Metrazol-induced seizures,over 10 times
